Key:
primary mouse B cells = assay: B-cell response experiment (anti-IgM activation, CD86 expression); settings: 24 h, 37° C.
Mino cells = assay: Pull-down proteomics in Mino cells; type: cell-based; settings: 100 nM probe
Description: To validate the molecular target of the probes, a competition experiment was performed, where the cells were pre-incubated with Ibrutinib prior to labelling with the probes (FIG. 25C). […] It is interesting to note that some off-targets were not competed by Ibrutinib, indicating these are new off-targets specific to our probes (FIG. 25C). To identify the off-targets of these probes, we performed a pull-down proteomics experiment in Mino cells (FIG. 25D) using 7d. […] Biotin was conjugated to the alkyne via CuAAC, and avidin beads were used for enrichment. BLK, MCAT and ADK were found as off-targets for probe 7d (FIG. 25D). ADK (40.5 kDa) and MCAT (Also known as SLC25A20; 33 kDa) correspond to the two bands seen in the gel (FIG. 25C) that are not competed by Ibrutinib. Both were abundant proteins in the cell which may explain probe binding. Overall very few off-targets were detected for all probes at the lower concentration.

Chains of the proteins cited; added tags and fusions are not shown. Residues count along the entry.
UniProt Q06187, 2-659 limits assumed: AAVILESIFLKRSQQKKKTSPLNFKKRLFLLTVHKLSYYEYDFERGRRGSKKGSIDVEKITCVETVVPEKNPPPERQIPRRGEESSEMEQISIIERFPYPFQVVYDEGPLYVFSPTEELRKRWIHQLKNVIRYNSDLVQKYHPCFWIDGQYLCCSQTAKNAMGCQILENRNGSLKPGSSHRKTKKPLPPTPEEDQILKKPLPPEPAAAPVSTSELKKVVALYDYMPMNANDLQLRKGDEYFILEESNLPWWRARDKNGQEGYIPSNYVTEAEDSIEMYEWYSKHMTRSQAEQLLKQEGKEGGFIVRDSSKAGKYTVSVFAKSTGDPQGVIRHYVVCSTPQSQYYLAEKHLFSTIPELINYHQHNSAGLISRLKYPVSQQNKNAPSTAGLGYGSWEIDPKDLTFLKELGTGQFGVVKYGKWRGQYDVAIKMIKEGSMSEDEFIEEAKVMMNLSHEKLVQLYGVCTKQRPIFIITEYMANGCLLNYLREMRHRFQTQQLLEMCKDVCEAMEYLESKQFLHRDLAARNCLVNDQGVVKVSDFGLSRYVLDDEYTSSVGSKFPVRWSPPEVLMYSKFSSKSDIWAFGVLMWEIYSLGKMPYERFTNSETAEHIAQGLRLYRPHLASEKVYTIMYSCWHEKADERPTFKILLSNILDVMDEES

BTK = BTK (Homo sapiens (Human), UniProt Q06187); assay: In-gel fluorescence labeling of BTK in Mino cells / lysate

For `C#CCCNC(=O)C(=C)CN1CCC[C@@H](n2nc(-c3ccc(Oc4ccccc4)cc3)c3c(N)ncnc32)C1`, the “inhibition of B cell activation (CD86 expression)” value (primary mouse B cells) was “did not inhibit the activation of B cells”, the “off-targets found by pull-down proteomics” value (Mino cells) was “BLK, MCAT and ADK” and the “BTK labeling in Mino cells” value (BTK; 10 nM probe, 2 h) was “robust labeling”. For the same compound, the “BTK labeling in Mino cells” value (BTK; 100 nM probe) was “bind to BTK in cells”.
